Source: ChEMBL document CHEMBL1157539, “Thousands of chemical starting points for antimalarial lead identification” (Nature, 2010)
Only a part is listed here, and it is no random draw.

Test system: HepG2
Assay: GSK_TCMDC: Percent inhibition of human HepG2 cell line. Test compounds present at 10uM.
Type: functional

## COc1cc(C(=O)NC(SC2=NCCS2)C(Cl)(Cl)Cl)cc(OC)c1OC (stereo unspecified)
  inhibition: 4%
